In BindingDB's records for doi:10.1007/s00044-008-9094-3 (The Medical University of Warsaw, 2008) one finds Ki data, which are given here for one compound.

The chains behind the UniProt entries cited, without tags or fusion partners.
UniProt P19327, whole entry: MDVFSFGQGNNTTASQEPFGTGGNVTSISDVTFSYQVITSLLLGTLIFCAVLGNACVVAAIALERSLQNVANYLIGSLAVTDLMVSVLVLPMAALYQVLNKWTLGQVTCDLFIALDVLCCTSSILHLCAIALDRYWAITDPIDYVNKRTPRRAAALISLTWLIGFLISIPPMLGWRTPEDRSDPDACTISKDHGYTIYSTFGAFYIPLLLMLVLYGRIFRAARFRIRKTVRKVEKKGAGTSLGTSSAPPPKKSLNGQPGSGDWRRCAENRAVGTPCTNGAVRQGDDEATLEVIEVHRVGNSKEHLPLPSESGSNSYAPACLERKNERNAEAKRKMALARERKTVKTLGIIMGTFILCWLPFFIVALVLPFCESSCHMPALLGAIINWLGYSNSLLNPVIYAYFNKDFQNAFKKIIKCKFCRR

Broadly, the Ki is the dissociation constant of the complex between target and ligand, obtained from inhibition or displacement. Higher therefore signals a looser hold on the target.

The assay deals with 5-hydroxytryptamine receptor 1A (Rattus norvegicus, UniProt P19327). The experiment in a line: Binding Assay.

`NCCc1c[nH]c2ccc(O)cc12` [[3H]-5-HT] gave a Ki of 90 nM.
